Data published in patent US20100034880A1, “PHARMACEUTICAL COMPOSITIONS BASED ON A MICROEMULSION” (NANODERMA LTD, priority 2007, published 2010).
Where two headings read alike, the source gives them in different places. Marks after values point to notes of the source that are not given here.

Experiments:
[1] = with absorption enhancers (e.g., cyclopentadecalactone or CPE-215); cited from earlier work
[2] = Pharmacokinetics of insulin after IV, SC and IN administration to diabetic rabbits
[3] = Diabetic Rabbit #1, IN 1 IU/kg (ME20)
[4] = Diabetic Rabbit #1, IV 0.5 IU/kg
[5] = Diabetic Rabbit #1, SC 0.5 IU/kg
[6] = Diabetic Rabbit #2, IN 1 IU/kg (ME20)
[7] = Diabetic Rabbit #2, IV 0.5 IU/kg
[8] = Diabetic Rabbit #2, SC 0.5 IU/kg
[9] = Diabetic Rabbit #3, IN 1 IU/kg (ME20)
[10] = Diabetic Rabbit #3, IV 0.5 IU/kg
[11] = Diabetic Rabbit #3, SC 0.5 IU/kg
[12] = Diabetic Rabbit #4, IN 1 IU/kg (ME20)
[13] = Diabetic Rabbit #4, IV 0.5 IU/kg
[14] = Diabetic Rabbit #4, SC 0.5 IU/kg
[15] = Healthy Rabbit #1, IN 1 IU/kg (microemulsion)
[16] = Healthy Rabbit #2, IN 1 IU/kg (microemulsion)

## Human insulin
[1]
  systemic absorption via the nasal route: 10-15%

## insulin
[2]; [3]
  ?z (lambdaz): 0.0189 min⁻¹
  AUC0-∞: 5473.1 mIU · min · L^−1
  AUC0-∞/dose: 5473.1 mIU · min · L^−1 · D^−1
  Cmax: 106.5 mIU/L
  Elimination t1/2: 36.7 min
  tmax: 15 min
[2]; Diabetic Rabbit #1, IN 1 IU/kg (ME20), relative to IV
  FA absolute bioavailability: 41.2%
[2]; [4]
  ?z (lambdaz): .0113 min⁻¹
  AUC0-∞: 6638.6 mIU · min · L^−1
  AUC0-∞/dose: 13277.2 mIU · min · L^−1 · D^−1
  Cmax: 253.7 mIU/L
  Elimination t1/2: 61.1 min
  FA absolute bioavailability: 100%
  tmax: 2 min
[2]; [5]
  ?z (lambdaz): 0.0263 min⁻¹
  AUC0-∞: 12192.7 mIU · min · L^−1
  AUC0-∞/dose: 24385.5 mIU · min · L^−1 · D^−1
  Cmax: 148.4 mIU/L
  Elimination t1/2: 26.3 min
  tmax: 15 min
[2]; [6]
  ?z (lambdaz): 0.0026 min⁻¹
  AUC0-∞: 8675.1 mIU · min · L^−1
  AUC0-∞/dose: 8675.1 mIU · min · L^−1 · D^−1
  Cmax: 167.3 mIU/L
  Elimination t1/2: 271.1 min
  tmax: 15 min
[2]; Diabetic Rabbit #2, IN 1 IU/kg (ME20), relative to IV
  FA absolute bioavailability: 70.6%
[2]; [7]
  ?z (lambdaz): 0.03 min⁻¹
  AUC0-∞: 6145.1 mIU · min · L^−1
  AUC0-∞/dose: 12290.2 mIU · min · L^−1 · D^−1
  Cmax: 183.1 mIU/L
  Elimination t1/2: 23.1 min
  FA absolute bioavailability: 100%
  tmax: 5 min
[2]; [8]
  ?z (lambdaz): 0.0047 min⁻¹
  AUC0-∞: 16772.0 mIU · min · L^−1
  AUC0-∞/dose: 33544.1 mIU · min · L^−1 · D^−1
  Cmax: 71.6 mIU/L
  Elimination t1/2: 149.0 min
  tmax: 30 min
[2]; [9]
  ?z (lambdaz): 0.0235 min⁻¹
  AUC0-∞: 3644.5 mIU · min · L^−1
  AUC0-∞/dose: 3644.5 mIU · min · L^−1 · D^−1
  Cmax: 79.5 mIU/L
  Elimination t1/2: 29.4 min
  tmax: 15 min
[2]; Diabetic Rabbit #3, IN 1 IU/kg (ME20), relative to IV
  FA absolute bioavailability: 27.5%
[2]; [10]
  ?z (lambdaz): 0.0097 min⁻¹
  AUC0-∞: 6628.2 mIU · min · L^−1
  AUC0-∞/dose: 13256.4 mIU · min · L^−1 · D^−1
  Cmax: 268.3 mIU/L
  Elimination t1/2: 71.7 min
  FA absolute bioavailability: 100%
  tmax: 15 min
[2]; [11]
  ?z (lambdaz): 0.0164 min⁻¹
  AUC0-∞: 12798.8 mIU · min · L^−1
  AUC0-∞/dose: 25597.7 mIU · min · L^−1 · D^−1
  Cmax: 121.5 mIU/L
  Elimination t1/2: 42.3 min
  tmax: 15 min
[2]; [12]
  ?z (lambdaz): 0.0218 min⁻¹
  AUC0-∞: 3845.4 mIU · min · L^−1
  AUC0-∞/dose: 3845.4 mIU · min · L^−1 · D^−1
  Cmax: 89.8 mIU/L
  Elimination t1/2: 31.9 min
  tmax: 15 min
[2]; Diabetic Rabbit #4, IN 1 IU/kg (ME20), relative to IV
  FA absolute bioavailability: 33.0%
[2]; [13]
  ?z (lambdaz): 0.0148 min⁻¹
  AUC0-∞: 5816.2 mIU · min · L^−1
  AUC0-∞/dose: 11632.4 mIU · min · L^−1 · D^−1
  Cmax: 267.2 mIU/L
  Elimination t1/2: 46.8 min
  FA absolute bioavailability: 100%
  tmax: 5 min
[2]; [14]
  ?z (lambdaz): 0.0119 min⁻¹
  AUC0-∞: 9130.1 mIU · min · L^−1
  AUC0-∞/dose: 18260.2 mIU · min · L^−1 · D^−1
  Cmax: 72.5 mIU/L
  Elimination t1/2: 58.4 min
  tmax: 45 min
[2]; diabetic rabbit #1, nasal application
  peak insulin plasma level: 106.5 ?IU/ml
[2]; diabetic rabbit #2, nasal application
  peak insulin plasma level: 167.3 ?IU/ml
[2]; diabetic rabbit #3, nasal application
  peak insulin plasma level: 79.5 ?IU/ml
[2]; diabetic rabbit #4, nasal application
  peak insulin plasma level: 89.8 ?IU/ml
[2]; diabetic rabbits #1 to #4, nasal application
  time to peak insulin plasma level from nasal application: 15 min
[15]
  ?z (lambdaz): 0.0128 min − 1
  AUC0-∞: 10391.5 mIU · min · L^−1
  AUC0-∞/dose: 10391.5 mIU · min · L^−1 · D^−1
  Cmax: 160.4 mIU/L
  Elimination t1/2: 53.9 min
  tmax: 15 min
Healthy Rabbit #1, SC 1 IU/kg
  ?z (lambdaz): 0.0165 min − 1
  AUC0-∞: 28952.3 mIU · min · L^−1
  AUC0-∞/dose: 28952.3 mIU · min · L^−1 · D^−1
  Cmax: 329.5 mIU/L
  Elimination t1/2: 42.0 min
  tmax: 15 min
[16]
  Cmax: 141.6 mIU/L
  tmax: 15 min
  AUC0-∞ (here AUC0-last = AUC0-30): 3206.9^b mIU · min · L^−1
  AUC0-∞/dose (here AUC0-last = AUC0-30): 3206.9^b mIU · min · L^−1 · D^−1
Healthy Rabbit #2, SC 1 IU/kg
  Cmax: 309.2 mIU/L
  tmax: 15 min
  AUC0-∞ (here AUC0-last = AUC0-30): 6426.8^b mIU · min · L^−1
  AUC0-∞/dose (here AUC0-last = AUC0-30): 6426.8^b mIU · min · L^−1 · D^−1
